Assay results reported in ChEMBL document CHEMBL1128821, “Evaluation of differential hypoxic cytotoxicity and electrochemical studies of nitro 5-deazaflavins” (Bioorg Med Chem Lett, 1995).

Test: Ratio of IC50 values under aerobic to that of anaerobic conditions
Type: functional

Structure (SMILES) | Ratio
CCCCCCCCn1c2nc(=O)n(-c3ccccc3)c(=O)c-2cc2ccc([N+](=O)[O-])cc21 | 5.1
CCCCCCCCCCCCn1c2nc(=O)[nH]c(=O)c-2cc2c([N+](=O)[O-])cccc21 | 3.9
CCCCCCCCCCCCn1c2nc(=O)n(C)c(=O)c-2cc2c([N+](=O)[O-])cccc21 | 2.5
CCCCCCCCCCCCn1c2nc(=O)n(C)c(=O)c-2cc2ccc([N+](=O)[O-])cc21 | 2.1
NC(=O)N/N=C/c1ccc([N+](=O)[O-])o1 [NITROFURAZONE] | 2.7
CCCCCCCCn1c2nc(=O)n(-c3ccccc3)c(=O)c-2cc2c([N+](=O)[O-])cccc21 | 6.4
CCCCCCCCCCCCn1c2nc(=O)[nH]c(=O)c-2cc2ccc([N+](=O)[O-])cc21 | 1.6
